Experiment [1] concerns the target T1, mouse-derived galanin receptor protein (mouse pancreatic β-cell line MIN6-derived, encoded by pMGR20) (mouse, UniProt P56479 1-348).
T1 construct: also called mouse galanin receptor; MIN6-derived galanin receptor protein
T1 sequence: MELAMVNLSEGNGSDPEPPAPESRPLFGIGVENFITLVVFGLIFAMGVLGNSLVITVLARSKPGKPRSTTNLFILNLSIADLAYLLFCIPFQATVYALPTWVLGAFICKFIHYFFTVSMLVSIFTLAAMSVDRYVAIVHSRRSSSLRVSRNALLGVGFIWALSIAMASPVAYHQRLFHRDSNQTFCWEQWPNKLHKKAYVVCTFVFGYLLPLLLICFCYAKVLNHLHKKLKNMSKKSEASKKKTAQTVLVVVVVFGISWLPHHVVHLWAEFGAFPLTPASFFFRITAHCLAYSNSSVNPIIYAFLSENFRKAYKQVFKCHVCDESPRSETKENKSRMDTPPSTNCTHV
Kind of experiment: competition with 100 pM porcine [125I] galanin on membranes of CHO cells expressing the mouse galanin receptor, 25 C 75 min.

Chains of the proteins cited; added tags and fusions are not shown. Lines headed by an entry give the natural chain unless they say otherwise; changes in a name come on top.
UniProt P07480: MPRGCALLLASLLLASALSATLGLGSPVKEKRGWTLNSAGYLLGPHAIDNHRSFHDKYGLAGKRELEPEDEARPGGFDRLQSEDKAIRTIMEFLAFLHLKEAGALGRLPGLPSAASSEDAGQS
UniProt P10683: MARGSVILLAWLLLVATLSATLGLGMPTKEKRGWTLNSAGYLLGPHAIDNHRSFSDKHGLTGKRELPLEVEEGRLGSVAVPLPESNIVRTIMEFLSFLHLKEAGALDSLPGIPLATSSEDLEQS

The target in experiment [2] is T1, mouse-derived galanin receptor protein …. Kind of experiment: competition with [125I] porcine galanin on MIN6 cell membrane fractions, 25 C 75 min, filtration.
Experiment [3] has the same target. Kind of experiment: competition with porcine [125I] galanin on membranes of CHO cells expressing the mouse galanin receptor.

B1: porcine galanin (unlabeled) (peptide, UniProt P07480 33-61, looked up)
peptide: GWTLNSAGYLLGPHAIDNHRSFHDKYGLA
notes: mature; The assay used the 29-residue peptide; also called standard porcine galanin; galanin (porcine)
What is called IC50 is the concentration that inhibits the measured activity by half. Read a high IC50 as weaker potency. Regarding B1, in experiment [1], the half-inhibitory concentration (IC50) was found to be 0.25 nM.

B2: rat galanin (peptide, UniProt P10683 33-61, looked up)
peptide: GWTLNSAGYLLGPHAIDNHRSFSDKHGLT
notes: mature; The assay used the galanin peptide; also called rat-type galanin
As a reminder, the Ki is a dissociation constant, usually derived from enzyme kinetics or from competition with a known ligand. Low readings indicate higher affinity, high ones lower affinity. With B2, the 50% inhibitory concentration (IC50) came out at 0.13 nM in experiment [2] and 0.25 nM in experiment [1]. For the same molecule, in experiment [3], the inhibitory constant (Ki) stood at 0.069 nM.

(Values after patent US20030008329A1 (Takeda / Millennium, published 2003).)
